Here are results for three compounds from PMC9459812, “Evaluation of Activity of Sesquiterpene Lactones and Chicory Extracts as Acetylcholinesterase Inhibitors Assayed in Calorimetric and Docking Simulation Studies” (Nutrients, 2022).

Amino acid sequences for entries named in this document (tags omitted). Residues count along the entry.
UniProt O42275, 24-633 limits assumed: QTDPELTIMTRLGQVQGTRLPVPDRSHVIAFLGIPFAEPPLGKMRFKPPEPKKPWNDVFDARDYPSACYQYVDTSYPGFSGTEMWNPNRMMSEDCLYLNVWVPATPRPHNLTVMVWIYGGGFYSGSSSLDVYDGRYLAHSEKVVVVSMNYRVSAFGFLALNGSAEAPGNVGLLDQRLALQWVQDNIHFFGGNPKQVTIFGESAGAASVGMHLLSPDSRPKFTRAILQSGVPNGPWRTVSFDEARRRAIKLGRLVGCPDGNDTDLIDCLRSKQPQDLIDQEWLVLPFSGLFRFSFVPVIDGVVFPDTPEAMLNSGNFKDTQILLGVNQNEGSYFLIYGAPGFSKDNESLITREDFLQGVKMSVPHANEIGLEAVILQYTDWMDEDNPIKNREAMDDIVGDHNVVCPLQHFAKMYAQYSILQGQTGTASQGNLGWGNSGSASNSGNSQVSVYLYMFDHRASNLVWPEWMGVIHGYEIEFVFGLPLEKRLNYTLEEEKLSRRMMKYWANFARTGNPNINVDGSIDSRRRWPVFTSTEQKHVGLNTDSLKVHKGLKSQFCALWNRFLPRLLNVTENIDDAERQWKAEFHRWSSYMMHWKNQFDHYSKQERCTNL

Like-named read-outs stand apart in the source and are kept apart here. Marks after values point to notes of the source that are not given here.

For data set [1], the target named is T1, acetylcholinesterase (AChE) (Electrophorus electricus, UniProt O42275). Kind of data set: ITC test of inhibition of acetylcholine hydrolysis by AChE. The class given is biochemical.
The target in data set [2] is T1, acetylcholinesterase (AChE). Conditions: ITC, 36.6 °C; for ∆H (enthalpy change of interaction with AChE): AChE 1 μmol/L, ligand 1 mmol/L (extracts converted to lactucin content); for ∆G (affinity of the inhibitor): calculated from the Gibbs equation; for KA × 10^3 (binding constant): values × 10^3, n = 9, ± SD.
The conditions of data set [3]: read-out: Cmax (serum concentration), free SLs, after consumption of a serving of chicory juice containing 49 μmol of total SLs, ref Weng et al. [37]; cited from earlier work.

With `C=C1C(=O)OC2C3C(CO)=CC(=O)C3=C(C)CC(O)C12` (stereo not drawn), in data set [1] (inhibitor concentration causing 50% decrease in enzyme activity (converted to lactucine for extracts), n = 9, ± SD), the half-inhibitory concentration (IC50) came to 3.11 µM. In addition, the inhibition constant Ki in data set [1] (read-out: KI (inhibition constant), dissociation constant of the enzyme–inhibitor complex, n = 9, ± SD) came to 1120 nM. Moreover, in data set [2] (n = 9, ± SD), the “∆H (enthalpy change of interaction with AChE)” value was −166.93 ± 0.22 ^e kJ/mol, the “∆G (affinity of the inhibitor)” value is given as −23.41 ± 1.82 ^a kJ/mol and the “∆S (entropy change)” value was −262.62 ± 6.21 ^b J/mol × K. For the same compound, the “KA × 10^3 (binding constant)” value in data set [2] was 33.44 ± 0.21 ^a L/mol. The “KA × 10^3 (binding constant)” value in data set [2] (listed as lactucin) was 33.44 L/mol. The equilibrium dissociation constant (Kd) in data set [2] (read-out: KD (dissociation constant), single binding site mode, n = 9, ± SD) worked out at 29.9 µM. The Cmax in data set [3] was 143 nM.
`C=C1C(=O)OC2C3C(CO)=CC(=O)C3=C(C)CC(OC(=O)Cc3ccc(O)cc3)C12` (stereo not drawn): in data set [2] (n = 9, ± SD), the “∆H (enthalpy change of interaction with AChE)” value is −74.45 ± 0.88 ^d kJ/mol, the “∆G (affinity of the inhibitor)” value is −22.41 ± 1.59 ^a kJ/mol and the “∆S (entropy change)” value is listed as −262.27 ± 2.21 ^b J/mol × K. Further, the “KA × 10^3 (binding constant)” value in data set [2] is 5.92 ± 0.11 ^d L/mol. In addition, in data set [2] (listed as lactucopicrin), the “KA × 10^3 (binding constant)” value was 5.92 L/mol.
Turning to 11(S),13-dihydrolactucin, the Cmax in data set [3] was 116 nM.
